Experimental data taken from ChEMBL document CHEMBL1138472, “Halogen bonding--a novel interaction for rational drug design?” (J Med Chem, 2009).

Target: Cyclin-dependent kinase 2 (Homo sapiens, UniProt P24941)

IC50: 1000 nM
SMILES: c1ccc(Nc2nc(OCC3CCCCC3)c3nc[nH]c3n2)cc1
